For series [1] the following is noted: Table S2; cited from earlier work.
Series [2] deals with SOX17 (endoderm marker) in RUES2-GLR cells. Briefly: DevTox GLR-Endo assay: decrease in percent SOX17-positive cells (AEID 3094, Sox17_dn).

For the molecule `C=CC(N)=O` [Acrylamide], the “Development Toxicant Classification” value in series [1] is given as “Negative”.
For `COc1cc2ncnc(Nc3ccc(F)c(Cl)c3)c2cc1OCCCN1CCOCC1` [Gefitinib], the “Hit Call” value in series [2] (Table S2, SOX17-positive cells, cutoff 3*bmad) is recorded as “Positive”. The “HIT−CALL” value in series [2] (tcpl plot AEID3094, COFF 20.3) was 1.

The values above are taken from paper PMC9321663, “The DevTox Germ Layer Reporter Platform: An Assay Adaptation of the Human Pluripotent Stem Cell Test” (Toxics, 2022).
